The results in this text go back to paper PMC12302718, “Molecular basis for Gβγ-SNARE-mediated inhibition of synaptic vesicle fusion” (The Journal of Biological Chemistry, 2025).

This assay has as its target Gβ1γ2. Briefly: Alphascreen direct binding assay (concentration response of His-tagged Gβ1γ2). The following applies: read-out: Affinity of Gβ1γ2 for the biotinylated partner (EC50), 20 nM biotinylated protein, His-tagged Gβ1γ2 0.1 nM - 1 μM, three technical replicates. As to the method:
Nb5 binds to the center of the Gβ1 β-propeller domain ([53]) and is not expected to hinder interactions involving the N-terminal coiled-coil domain. […] The means ± SD of three technical replicates are shown.
Alphascreen acceptor beads were added to each well to a final concentration of 20 μg/ml and incubated for 30 min. 20 μg/ml Alphascreen donor beads were then added prior to incubation in a plate shaker for 1 h. Plates were read in a Biotek Synergy Neo. Concentration response curves were analyzed in GraphPad prism to derive EC50 values. […] Nb5 was added in concentrations ranging from 0.4 nM to 1.26 μM.
(Bead proximity is the source of the signal in Alpha formats.)

By EC50 is commonly meant the concentration at which the effect is half-maximal. With “SNAP25: synaptosomal-associated protein-25, full-length, biotinylated”, the EC50 is 351 nM.
